Data on 30 compounds can be found in PubChem BioAssay AID778 (Sanford-Burnham Center for Chemical Genomics, 2007).

Amino acid sequences for entries named in this document (tags omitted).
UniProt P33261, whole entry, looked up: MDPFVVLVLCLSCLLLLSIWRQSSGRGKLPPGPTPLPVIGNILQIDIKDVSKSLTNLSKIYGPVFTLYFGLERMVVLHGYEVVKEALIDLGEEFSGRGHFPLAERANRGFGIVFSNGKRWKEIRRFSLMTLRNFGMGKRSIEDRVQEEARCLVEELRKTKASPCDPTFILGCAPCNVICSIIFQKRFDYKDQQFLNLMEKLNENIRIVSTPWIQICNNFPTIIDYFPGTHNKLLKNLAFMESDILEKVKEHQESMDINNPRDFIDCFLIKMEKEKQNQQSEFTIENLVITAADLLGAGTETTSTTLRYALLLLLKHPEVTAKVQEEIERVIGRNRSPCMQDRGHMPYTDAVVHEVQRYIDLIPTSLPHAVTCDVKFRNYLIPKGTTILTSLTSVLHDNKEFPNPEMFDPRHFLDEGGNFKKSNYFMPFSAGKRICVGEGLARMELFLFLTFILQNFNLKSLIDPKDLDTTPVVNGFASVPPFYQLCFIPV

The list shows a part of the results, in another mix than the full data. Calls of active or inactive are those of the source.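 Rule for the calls: active = CYP2C19 inhibition above a set limit at 5 µM in the primary screen (cut at about 50% in these data); inactive = the rest.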

In the test the target is Cytochrome P450 2C19 (Homo sapiens) (UniProt P33261). The test is described as follows: blockers of cytochrome P450 2C19 activity – biochemical, luminescence, ADME assay, primary screen (AID 778).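 Note: plate controls were negative control wells for no effect and 2.5 mM tranylcypromine positive control for full effect.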 The conditions noted are these: CYP2C19 Supersomes, luciferin-H EGE luminescence, 30 min; at 5 µM; hits give high values.
`O=C(COc1ccccc1)OC1CN2CCC1CC2` (stereo not given): the inhibition was inactive: -1.8%.

For `COP1(=S)c2c(C)nn(CCC#N)c2N=C(c2ccc(F)cc2)N1C` (stereo not given), the inhibition was inactive: 35.7%.

For the compound `CCN(CC)C(=S)SC(NC=O)C(Cl)(Cl)Cl` (stereo not given), the inhibition was inactive: 46.9%.

Take `O=C(OC1CN2CCC1CC2)C12CC3CC(CC(C3)C1)C2` (stereo not given): the inhibition was inactive: -9.9%.

Regarding `Cc1cccc(OCC(=O)OC2CN3CCC2CC3)c1` (stereo not given), the inhibition is inactive: 11.1%.

For the compound `O=[N+]([O-])c1ccc2c(c1)nnn2O`, the inhibition was inactive: -6.1%.

As for `CCOP1(=S)c2c(C)nn(CCC#N)c2N=C(c2ccc(F)cc2)N1C` (stereo not given), the inhibition is inactive: 40.6%.

Consider `O=P(Nc1nccs1)(c1ccccc1)c1nc2ccccc2s1` (stereo not given), for which the inhibition was active: 57.7%.

For the compound `CCOP1(=S)c2c(C)nn(CCC#N)c2N=C(c2ccccc2F)N1C` (stereo not given), the inhibition is active: 89.6%.

On to `Cc1ccc(OCC(=O)OC2CN3CCC2CC3)cc1` (stereo not given), for which the inhibition is inactive: -5.3%.

As for `O=P1(Nc2ccc(Br)cn2)COc2ccccc2OC1`, the inhibition is active: 91.5%.

As to `O=P1(Nc2ncccn2)COc2ccccc2OC1`, the inhibition was inactive: -5.4%.

Regarding `Cc1nn(-c2ccccc2)c2c1P(=O)(N1CCOCC1)N(C)C(c1ccccc1)=N2` (stereo not given), the inhibition is inactive: 9.5%.

As to `Clc1n[nH]nc1-c1nn[nH][15n]1`, the inhibition was inactive: -4.1%.

Take `O=P1(Nc2ccccn2)COc2ccccc2OC1`: the inhibition is active: 58.6%.

For `c1nnnn1CCn1cnnn1`, the inhibition was inactive: -1.3%.

With `O=P(Nc1nccs1)(c1ccccc1)c1ccccc1`, the inhibition was inactive: -1.4%.

With `O=C(OC1CN2CCC1CC2)c1cccc(Cl)c1` (stereo not given), the inhibition was inactive: 11.1%.

Take `COC(=O)c1cc2c(s1)N=C(c1ccccc1)N(C)P2(=O)N1CCOCC1` (stereo not given): the inhibition is inactive: -2.6%.

`CCC(=O)N1C2C3N(C(=O)CC)C1C1N(C(=O)CC)C(C(N1C(=O)CC)N3C(=O)CC)N2C(=O)CC`: the inhibition was inactive: 21.6%.

With `CCOC(=O)NC(Sc1ccccc1)C(Cl)(Cl)Cl` (stereo not given), the inhibition is active: 71.4%.

As for `O=P1(Nc2nc3ccc(Cl)cc3s2)COc2ccccc2O1` (stereo not given), the inhibition is inactive: 12.4%.

For `CC(C)CC(=O)NC(Sc1ccc(Cl)cc1)C(Cl)(Cl)Cl` (stereo not given), the inhibition is active: 79.9%.

As to `Cc1c2non([O-])c-2c(C)[n+](=O)[n+]1[O-]`, the inhibition is inactive: 1%.

Turning to `Oc1ccccc1CNc1ccccn1`, the inhibition was active: 51.7%.

In the case of `CCOP(=O)(Nc1ccccc1)OCC`, the inhibition was inactive: 12.4%.

As for `CC1CCN(C(=O)Oc2c(Cl)cc(Cl)c3cccnc23)CC1`, the inhibition was inactive: 14.2%.

Consider `O=[N+]([O-])c1cccc2n[nH]nc12`, for which the inhibition was inactive: -14%.

Regarding `CC(=O)N1C2C3N(C(C)=O)C1C1N(C(C)=O)C(C(N1C(C)=O)N3C(C)=O)N2C(C)=O`, the inhibition was inactive: 45.8%.

In the case of `CCc1nc2c(n1)c1c(non1O)c1c2no[n+]1[O-]`, the inhibition was inactive: 3.8%.

A word on the inhibition: it is the change of the read-out against control, counted positive when it falls.
